Where two headings read alike, the source gives them in different places.
Tests used:
[1] = test system: SK-OV-3 ovarian cancer cell (HER2+); assay: In vitro anti-proliferative study (NBB staining, 6 days); assay type: cell-based, human; details: SK-OV-3 (HER2+), 6 days incubation
Protocol: (§1) The selective binding and internalization behavior of ADC are then examined by flow cytometry and confocal microscopy, using two HER2-overexpressed SK-BR-3 breast cancer cells and SK-OV-3 ovarian cancer cells, as well as two HER2-negative MDA-MB-231 breast cancer cells and MCF-10A breast epithelial cells. Briefly, Different cell lines (1×10^3 cells/well) are seeded in a microtiter plate (96 well) and incubated overnight before the treatment. Different concentrations of erianin, trastuzumab and ADC are added into the wells and then incubated for 6 days. After the media is removed, the cells are fixed with formaldehyde (3%; 50 μL) in PBS and stained with NBB reagent (0.05%, 0.1 M sodium acetate, 9% acetic acid; 50 μL) for overnight. The stained cells in each well are washed thrice gently with deionized water and solubilized in sodium hydroxide solution (50 mM; 100 μL). The cell viability is determined by measuring the absorbance of 620 nm in each well by microplate reader. The experiments are repeated in triplicate. The IC50 values are presented as the mean±standard deviation.

[2] = test system: MCF-10A breast epithelial cell (HER2−); assay: as above; assay type: cell-based; details: MCF-10A (HER2−), 6 days incubation
Protocol: as §1

[3] = test system: MDA-MB-231 breast cancer cell (HER2−); assay: as above; assay type: cell-based; details: MDA-MB-231 (HER2−), 6 days incubation
Protocol: as §1

[4] = test system: SK-BR-3 breast cancer cell (HER2+); assay: as above; assay type: cell-based; details: SK-BR-3 (HER2+), 6 days incubation
Protocol: as §1

[5] = test system: SK-OV-3, SK-BR-3, MDA-MB-231 and MCF-10A cells; assay: In vitro anti-proliferative study, statements over several cell lines; assay type: cell-based
Protocol: as §1

[6] = test system: HER2-positive SK-OV-3 human ovarian cancer xenograft; assay: Antitumor activity in SK-OV-3 xenograft model; assay type: in vivo, Female BALB/cAnN-nu (nude) mice; details: 20 mg/kg intravenous, four doses (day 0, 4, 8, 12)
[7] = test system: HER2-positive cancer cells and HER2-negative cell lines; assay: Confocal microscopic study of Alexa 647-labelled ADC; assay type: cell-based; details: incubated at 37° C., 24 h

Row | Substance | IC50 ([1]; mean±SD, read-out: IC50) | IC50 ([1]; value in brackets) | IC50 ([2]; value in brackets) | IC50 ([2]; read-out: IC50) | IC50 ([3]; mean±SD, read-out: IC50) | IC50 ([3]; value in brackets) | IC50 ([4]; mean±SD, read-out: IC50) | IC50 ([4]; value in brackets) | cell growth inhibition ([5]; all the cells) | antitumor activity [6] | IC50 ([1]; mean±SD, listed as ADC, read-out: IC50) | anti-proliferative effect on HER2-negative cell lines ([5]; HER2-negative cell lines, compared with HER2-positive cells) | colocalization with LysoTracker Green [7]
1 | Trastuzumab (mAb): a well-known monoclonal antibody that targets the HER2 receptor | > 4 µM | (>0.60 mg/mL) | (>0.60 mg/mL) | > 4 µM | > 4 µM | (>0.60 mg/mL) | > 4 µM | (>0.60 mg/mL) | not obvious | apparent antitumor activity |  |  | 
2 | Trastuzumab-Erianin (ADC): trastuzumab conjugated with erianin through a Val-Cit cathepsin B cleavable linker and self-immolative spacer via maleimidocaproyl-cysteine; DAR 8 | 0.59 ± 0.08 µM | (0.088 mg/mL) | (>0.60 mg/mL) | > 4 µM | 3.9 ± 0.05 µM | (0.58 mg/mL) | 0.9 µM | (0.13 mg/mL) |  |  | 0.6 µM | less effects | some of the red dots of ADC are located at lysosomes
